Data from patent publication US20050267136A1, “Method of inhibiting dihydrofolate reductase; screening assay for the identification of novel therapeutics and their cellular targets” (McMaster University, priority 2003, published 2005).
Values after ≈ are worked out from the molar mass of the structure shown.

Tested on: E. coli MC1061
Assay: Minimum inhibitory concentration determination in LB broth
Assay type: cell-based
Details: Escherichia coli, 16 hr at 37° C., OD600 less than 0.1

MIC: 16 µg/mL (≈ 83.2 µM)
SMILES: CC1Cc2nc(N)nc(N)c2CC1C (stereo not shown) [Compound 7]
